From PubChem BioAssay
Most compounds without a hit are left out; they make up all but 16% or so of the library.
TDP1 cell noCPT = qHTS for Inhibitors of human tyrosyl-DNA phosphodiesterase 1 (TDP1): qHTS in cells in absence of CPT; DT40 Tdp1-/- hTDP1 cells, no CPT, ATP luminescence, 48 h; Potency, µM (top dose mostly 46.2 µM), without a hit: at the top dose activity change, negative = growth inhibition, actives largely listed as inhibitors; actives 15% (n = 420,000); AID 686978, 2013; also: potency is read from the fitted curve at half-maximal effect; % is scaled to controls: 0 for no effect and ±100 for the full control effect; nearly all actives have a fitted effect of over 55% in size
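Camptothecin absent (DMSO only). Human TDP1-complemented DT40 knockout cells, 400 cells/well, 37 °C for minimum 48 hr; ATP measured via CellTiter-Glo, 30 min dark incubation, luminescence.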
miR-21 reporter = raises the signal of a miR-21 reporter. Potency, µM (highest dose often 38.3 µM), without a hit: top-dose reporter change, positive = more light. 340,000 tested, under 10 active. HeLa miR-21 FLuc reporter, luciferase, 48 h; active = well fitted rising curve with a large enough effect; inconclusive = small, poorly fitted or top-dose-only effect; inactive = no such curve, though single readings can be large or run the other way;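 further: % of control where 0% means no effect; miR-21 action dims this reporter so a rising signal means less miR-21 action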
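Compounds were titrated across several concentrations (up to approximately 40 uM) and incubated 48 hours with HeLa miR-21-FLuc reporter cells (miR-21 target sequence downstream of FLuc, endogenous miR-21). Readout was firefly luciferase luminescence after lytic detection reagent.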
uPA generation = cell surface uPA generation inhibition; cell surface uPA generation assay, qHTS; Potency, µM (highest dose often 38.3 µM), for inactives: at the highest dose activity change, negative = inhibition, hits mostly inhibitors; actives 0.31% (n = 330,000); AID 540303; active = well fitted inhibition curve with a large enough effect; inconclusive = small, poorly fitted or top-dose-only effect; inactive = no such curve, though single readings can be large or run the other way; tested in mouse RAW 264.7 cells; also: potency is read from the fitted curve at half-maximal effect; % is scaled to controls: 0 for no effect and ±100 for the full control effect; nearly all actives have a fitted effect of over 55% in size
DT40 TDP1 CPT = DT40-hTDP1 cell growth loss with CPT | chicken DT40 Tdp1-/-;hTDP1 cells + 20 nM CPT, ATP luminescence, 48 h | Potency, µM (series often up to 46.2 µM), for inactives: at the top dose activity change, negative = growth inhibition, usual class: inhibitors | actives 12% (n = 420,000) | AID 686979; also: potency is read from the fitted curve at half-maximal effect; % is scaled to controls: 0 for no effect and ±100 for the full control effect; nearly all actives have a fitted effect of over 55% in size
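Cell growth measured by CellTiter-Glo luminescence after a minimum 48 h, 37 C compound exposure with 20 nM CPT in Tdp1-knockout DT40 cells stably expressing hTDP1, seeded 400/well; qHTS titration format.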
TDP1 inh = blocks human tyrosyl-DNA phosphodiesterase 1; Q9NUW8; recombinant TDP1, AlphaScreen DNA substrate cleavage; actives 0.28% (n = 350,000); Potency, µM (series often up to 130 µM), inactives show top-dose activity change, negative = inhibition, most hits filed as inhibitors; also: potency is read from the fitted curve at half-maximal effect; % is scaled to controls: 0 for no effect and ±100 for the full control effect; nearly all actives have a fitted effect of over 40% in size
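Recombinant E. coli-expressed Tdp1 (1 nM) preincubated with compound 15 min at RT, then 5'-biotin/3'-phosphotyrosine-FITC DNA substrate (15 nM) added for 5 min. AlphaScreen beads (10 ug/ml) added, 10 min RT; tyrosine-FITC cleavage read as signal loss.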
An asterisk follows results filed as active; u = inconclusive; x = no result. Unless noted, calls follow the shape of the dose curve; as a rule, active = well fitted curve in the direction sought with a large enough effect; inconclusive = small, poorly fitted or top-dose-only effect, or another doubt; inactive = no such curve, though single readings can be large; an effect the other way counts as inactive or inconclusive.

SMILES	TDP1 cell noCPT	miR-21 reporter	uPA generation	DT40 TDP1 CPT	TDP1 inh
CCNC(=S)Nc1scc(-c2ccccc2)c1C(=O)OCC	23µM*	-9%	0%	u	2%
CCOC(=O)c1c(-c2cccs2)csc1NC(=O)CN1CC(C)OC(C)C1 (configuration not stated)	23µM*	0%	3%	26µM*	-5%
CC(C)(C)N1NC(=O)Nc2ccccc2C1=O	-8%	-2%	3%	0%	6%
CCOC(=O)c1c(-c2ccccc2)csc1NC(=O)C(C)NCCCN1CCOCC1 (configuration not stated)	u	12%	-4%	u	-6%
CCOC(=O)c1c(-c2ccc(C)o2)csc1NC(=S)NC(=O)c1ccccc1Br	u	-2%	8%	16µM*	6%
CCOC(=O)c1c(-c2cccc([N+](=O)[O-])c2)csc1NC(=O)C1CC1	21µM*	-6%	x	18µM*	6%
CCOC(=O)c1c(-c2ccc(F)cc2)csc1NC(=O)CCN1CCOCC1	21µM*	-7%	12%	u	x
CCOC(=O)c1c(-c2ccc(-c3ccccc3)cc2)csc1NC(=O)CCN1CCOCC1	15µM*	-3%	1%	18µM*	3%
O=C(COC(=O)C1CCN(C(=O)Nc2ccccc2)CC1)NCC(F)(F)F	7%	-1%	3%	0%	2%
COc1cc(/C=N/NC(=O)c2cccc([N+](=O)[O-])c2)ccc1OCc1ccc(C)cc1	-13%	-45%	1%	-3%	4%
COc1cc(/C=N/NC(=O)c2ccc(COc3cc(C)ccc3C(C)C)cc2)cc(OC)c1O	13µM*	16%	3%	16µM*	-5%
Cc1ccc(C(C)C)c(OCc2ccc(C(=O)N/N=C/c3ccc(O)c(O)c3)cc2)c1	2.1µM*	u	-11%	2.3µM*	0%
Cc1ccc(C(C)C)c(OCc2ccc(C(=O)N/N=C/c3cccc(O)c3O)cc2)c1	5.2µM*	u	-19%	3.7µM*	11%
CCc1ccc(CN(C(=O)c2oc3ccccc3c2C)C2CCS(=O)(=O)C2)cc1 (configuration not stated)	18µM*	9%	9%	u	x
Cc1ccsc1CN(C(=O)c1oc2ccccc2c1C)C1CCS(=O)(=O)C1 (configuration not stated)	5.2µM*	-1%	x	8.2µM*	5%
Cc1c(C(=O)N(Cc2ccccc2)C2CCS(=O)(=O)C2)oc2ccccc12 (configuration not stated)	21µM*	-4%	3%	u	x
O=C(Cn1c(=O)oc2ccccc21)N(Cc1ccccc1)C1CCS(=O)(=O)C1 (configuration not stated)	u	-11%	1%	23µM*	6%
O=C1C2CC=CCC2C(=O)N1CC(=O)N(Cc1ccccc1)C1CCS(=O)(=O)C1 (configuration not stated)	5%	-4%	-8%	-8%	3%
CNc1nc(NCc2ccccc2)nc(N)c1[N+](=O)[O-]	u	-17%	9%	-23%	0%
COc1ccc(OC)c(NC(=O)Cn2ncc3c2-c2ccccc2OC3)c1	u	-2%	x	u	5%
Cc1c(C(=O)N(Cc2ccc(F)cc2)C2CCS(=O)(=O)C2)oc2ccccc12 (configuration not stated)	-28%	1%	-10%	u	0%
Cc1c(C(=O)N(Cc2cccc(Br)c2)C2CCS(=O)(=O)C2)oc2ccccc12 (configuration not stated)	21µM*	11%	10%	u	3%
Cc1c(C(=O)N(Cc2ccc(N(C)C)cc2)C2CCS(=O)(=O)C2)oc2ccccc12 (configuration not stated)	u	2%	3%	29µM*	11%

Structures above that contain nitrogen in an aromatic ring (three):
SMILES	TDP1 cell noCPT	miR-21 reporter	uPA generation	DT40 TDP1 CPT	TDP1 inh
O=C(Cn1c(=O)oc2ccccc21)N(Cc1ccccc1)C1CCS(=O)(=O)C1 (configuration not stated)	u	-11%	1%	23µM*	6%
CNc1nc(NCc2ccccc2)nc(N)c1[N+](=O)[O-]	u	-17%	9%	-23%	0%
COc1ccc(OC)c(NC(=O)Cn2ncc3c2-c2ccccc2OC3)c1	u	-2%	x	u	5%
